{"sequences": {"note": "Sequences of proteins named here, by UniProt entry; tags and fusion partners are left off. A change or cut given only in a name is not applied to a line headed by its entry.", "UniProt P53341": "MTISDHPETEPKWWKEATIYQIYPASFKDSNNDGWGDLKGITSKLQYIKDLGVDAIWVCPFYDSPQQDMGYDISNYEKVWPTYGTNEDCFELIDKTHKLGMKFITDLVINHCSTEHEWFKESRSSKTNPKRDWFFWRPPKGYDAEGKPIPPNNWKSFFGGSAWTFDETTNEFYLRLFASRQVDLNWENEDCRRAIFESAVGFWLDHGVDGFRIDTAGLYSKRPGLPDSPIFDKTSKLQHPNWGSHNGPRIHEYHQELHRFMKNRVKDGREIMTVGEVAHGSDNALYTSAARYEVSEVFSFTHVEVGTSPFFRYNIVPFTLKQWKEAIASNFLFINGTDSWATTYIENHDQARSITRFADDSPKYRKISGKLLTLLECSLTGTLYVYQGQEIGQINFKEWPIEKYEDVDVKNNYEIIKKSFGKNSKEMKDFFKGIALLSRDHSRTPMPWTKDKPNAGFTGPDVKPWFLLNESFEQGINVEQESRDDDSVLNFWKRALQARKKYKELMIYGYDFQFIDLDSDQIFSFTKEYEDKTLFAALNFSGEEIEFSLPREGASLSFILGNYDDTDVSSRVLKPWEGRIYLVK"}, "source": "paper PMC10528180", "about": "“Inhibitory Mechanism of Quercimeritrin as a Novel α-Glucosidase Selective Inhibitor” (Foods, 2023)", "key": {"[1]": {"biological_target": "T1, α-glucosidase (Saccharomyces cerevisiae, UniProt P53341)", "T1 construct": "purchased Sigma-Aldrich Co", "type": "biochemical", "conditions": "read-out: α-glucosidase inhibition IC50±SEM", "description": "(§1) The other reagents used in this experiment are analytically pure reagents purchased from Sigma-Aldrich Co. (St. Louis, MI, USA) unless specified otherwise.\n(§2) The in vitro α-glucosidase activity assay was determined using spectrophotometry, as previously reported, with only minor modifications. In phosphate buffer with a pH of 6.8, 0.5 U/mL of α-glucosidase and the appropriate quantity of p-nitrophenyl-D-glucopyranoside (pNGP) were produced. […] Gradient dilution with a phosphate-buffered solution was used to create sample solutions of various concentrations. First, different concentrations of compound (10 μL), an enzyme solution (40 μL), and potassium phosphate buffer (100 μL) were pre-incubated in 96-well plates at 37 °C for 10 min.\n(§3) The enzymatic inhibitory activity of the tested compounds was calculated using the following formula: Inhibition %=[(Abs control−Abs sample)/Abs control]×100\n(§4) The IC50 values of the tested compounds were calculated using nonlinear fitting (logit method)."}, "[2]": {"biological_target": "T2, α-amylase (Sus scrofa, UniProt P00690)", "T2 construct": "α-amylase (EC 232-565-6, powder, ≥5 units/mg solid) isolated from porcine pancreas; purchased Sigma-Aldrich Co; host or cells: porcine pancreas", "T2 sequence (P00690 16-511)": "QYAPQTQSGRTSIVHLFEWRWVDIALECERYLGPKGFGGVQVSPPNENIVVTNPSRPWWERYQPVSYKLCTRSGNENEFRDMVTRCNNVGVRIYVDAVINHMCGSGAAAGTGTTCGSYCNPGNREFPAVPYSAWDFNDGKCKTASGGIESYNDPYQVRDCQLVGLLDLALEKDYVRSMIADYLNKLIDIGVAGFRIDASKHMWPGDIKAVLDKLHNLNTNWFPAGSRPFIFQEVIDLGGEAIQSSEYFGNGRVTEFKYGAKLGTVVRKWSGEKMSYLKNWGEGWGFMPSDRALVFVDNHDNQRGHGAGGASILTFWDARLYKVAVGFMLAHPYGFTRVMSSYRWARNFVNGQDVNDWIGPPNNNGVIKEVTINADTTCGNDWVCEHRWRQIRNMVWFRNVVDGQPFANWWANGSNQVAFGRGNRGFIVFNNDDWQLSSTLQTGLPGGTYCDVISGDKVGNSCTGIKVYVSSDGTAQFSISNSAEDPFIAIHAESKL", "test": "In vitro α-amylase activity assay (G3-CNP, absorbance 405 nm)", "type": "biochemical, porcine", "conditions": "read-out: α-amylase inhibition IC50±SEM", "description": "as §1\nas §2, with “modifications. A total” for “modifications. In phosphate buffer with a pH”, “of 5” for “of 6.8, 0.5”, “of α-amylase” for “of α-glucosidase”, “of 2-chloro-4-nitrophenyl α-D-maltotrioside (G3-CNP)” for “of p-nitrophenyl-D-glucopyranoside (pNGP)”\nas §3, §4"}}, "data": [{"substance": "Catechin gallate", "values": [{"measurement": "IC50", "setting": "[1]", "value": "7.53 ± 0.55", "unit": "µM"}, {"measurement": "IC50", "setting": "[2]", "value": "149 ± 33.6", "unit": "µM"}]}]}
